Like-named read-outs stand apart in the source and are kept apart here.
Legend:
[1] = test system: normal human T cells (PBMC); type: cell-based
[2] = test system: HLA-DR molecules; conditions: 16 most prevalent HLA-DR molecules; cited from earlier work

Compound	potency relative to TT 830-843 antigen for activation of T cell responses, on a molar basis [1]	donors with primary T cell responses ([1]; PBMC from three normal donors, after third round of stimulation)	antigen concentration at which the 10,000 cpm proliferation level was reached [1]	donors with primary T cell responses [1]	number of HLA-DR molecules bound of 16 tested [2]
aKXVAAWTLKAAa-NH2 [PADRE]	about 100 fold	all three donors			
CC[C@H](C)[C@H](NC(=O)CNC(=O)[C@@H](NC(=O)[C@H](Cc1ccccc1)NC(=O)[C@H](CCCCN)NC(=O)[C@H](CO)NC(=O)[C@H](CC(N)=O)NC(=O)[C@H](C)NC(=O)[C@H](CCCCN)NC(=O)[C@@H](NC(=O)[C@H](Cc1ccc(O)cc1)NC(=O)[C@@H](N)CCC(N)=O)[C@@H](C)CC)[C@@H](C)CC)C(=O)N[C@H](C(=O)N[C@@H](CCC(=O)O)C(=O)O)[C@@H](C)O [553.01, reference compound]			about 10,000 ng/ml	2 out of 3	seven of 16
